According to patent publication US8273708B2, “Methods of treatment of ocular surface pathologies” (priority 2004, dated 2012):

System: male Wistar rats
Test: Ocular inflammation induced by corneal instillation of P48/80: total MPO activity in the whole eye
Type: in vivo, rat
Details: six hours after instillation
Protocol: FIG. 1: Experimental protocol for example 1. Animals received two pretreatments with ML-7 [1 mg/kg by the intraperitoneal (IP) route] on the day before instillation of P48/80 (in the morning and evening) and one pretreatment two hours before instillation.
The corneal irritation model which was used has been validated in the rat (Allansmith et al., Acta Ophtalmol, 1989; 192S: 145-153) and in the rabbit (Bucolo et al., J. Ocul. Pharmacol, 1993; 9: 321-332).
Animals: Three groups of eight male Wistar rats (200-250 g) housed in individual cages were used. Animals were given a standard diet (UAR, Villemoisson, Epinay sur Orge) and drinking water ad libitum.
Inflammation induction: Inflammation was induced by instillation in the eye of 10 μl of a 10% P48/80 solution (0.1 g/ml). The control eye was instilled with 10 μl of 1×PBS.
Assay of myeloperoxidase activity: The eyes were excised and homogenized in phosphate buffer with the aid of a polytron. They were then subjected to three freeze/thaw cycles (liquid nitrogen/37° C. water bath). After centrifugation at 10,000 rpm for 15 min at 4° C., the pellets were resuspended in HTAB buffer and sonicated for 10 sec. After a second centrifugation, MPO activity was assayed from the supernatant in a reaction buffer containing O-dianisidine hydrochloride and 0.0005% hydrogen peroxide. The change in absorbance at 460 nm was measured on a spectrophotometer. […]

Substance: condensate of N-methyl-p-methoxyphenethylamine and formaldehyde [P48/80]
- MPO activity in the eye after P48/80 (10 μl of 10% P48/80 instilled in left eye, whole eye): 43.1±11.3 U/g.protein
- increase in MPO activity after P48/80 (versus baseline 8.5±1.2 U/g.protein): 407%
